Laboratory results as given in patent publication US6897237B2, “MMP-12 inhibitors” (Shionogi & Co. Ltd., priority 2000, dated 2005).

Chains of the proteins cited; added tags and fusions are not shown. Residues count along the entry.
UniProt P22894, 99-262 limits assumed: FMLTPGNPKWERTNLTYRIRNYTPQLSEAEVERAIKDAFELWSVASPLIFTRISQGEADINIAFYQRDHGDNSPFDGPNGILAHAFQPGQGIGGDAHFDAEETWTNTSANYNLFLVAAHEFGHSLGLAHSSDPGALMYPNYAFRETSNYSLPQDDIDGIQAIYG
UniProt P14780, 107-707 limits assumed: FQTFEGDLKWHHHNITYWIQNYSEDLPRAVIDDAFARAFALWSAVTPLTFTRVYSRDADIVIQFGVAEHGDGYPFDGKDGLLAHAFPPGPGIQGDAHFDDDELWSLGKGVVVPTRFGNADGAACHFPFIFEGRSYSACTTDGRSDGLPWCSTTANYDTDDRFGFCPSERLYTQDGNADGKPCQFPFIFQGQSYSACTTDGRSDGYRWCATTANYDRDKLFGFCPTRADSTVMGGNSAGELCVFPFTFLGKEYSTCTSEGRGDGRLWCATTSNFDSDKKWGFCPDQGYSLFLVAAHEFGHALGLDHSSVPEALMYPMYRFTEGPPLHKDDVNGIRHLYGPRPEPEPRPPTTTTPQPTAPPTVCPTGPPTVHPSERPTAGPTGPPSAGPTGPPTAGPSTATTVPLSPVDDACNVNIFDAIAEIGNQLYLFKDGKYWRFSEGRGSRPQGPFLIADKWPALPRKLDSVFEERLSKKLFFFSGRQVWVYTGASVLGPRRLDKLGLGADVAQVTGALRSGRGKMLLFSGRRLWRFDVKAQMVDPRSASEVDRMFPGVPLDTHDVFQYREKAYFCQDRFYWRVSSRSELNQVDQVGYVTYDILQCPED
UniProt P39900, 100-263 limits assumed: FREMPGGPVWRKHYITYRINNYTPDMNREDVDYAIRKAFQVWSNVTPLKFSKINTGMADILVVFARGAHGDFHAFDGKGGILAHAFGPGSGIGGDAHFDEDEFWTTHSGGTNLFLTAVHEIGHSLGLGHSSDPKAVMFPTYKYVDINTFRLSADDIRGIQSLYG
UniProt P08253, 110-660 limits assumed: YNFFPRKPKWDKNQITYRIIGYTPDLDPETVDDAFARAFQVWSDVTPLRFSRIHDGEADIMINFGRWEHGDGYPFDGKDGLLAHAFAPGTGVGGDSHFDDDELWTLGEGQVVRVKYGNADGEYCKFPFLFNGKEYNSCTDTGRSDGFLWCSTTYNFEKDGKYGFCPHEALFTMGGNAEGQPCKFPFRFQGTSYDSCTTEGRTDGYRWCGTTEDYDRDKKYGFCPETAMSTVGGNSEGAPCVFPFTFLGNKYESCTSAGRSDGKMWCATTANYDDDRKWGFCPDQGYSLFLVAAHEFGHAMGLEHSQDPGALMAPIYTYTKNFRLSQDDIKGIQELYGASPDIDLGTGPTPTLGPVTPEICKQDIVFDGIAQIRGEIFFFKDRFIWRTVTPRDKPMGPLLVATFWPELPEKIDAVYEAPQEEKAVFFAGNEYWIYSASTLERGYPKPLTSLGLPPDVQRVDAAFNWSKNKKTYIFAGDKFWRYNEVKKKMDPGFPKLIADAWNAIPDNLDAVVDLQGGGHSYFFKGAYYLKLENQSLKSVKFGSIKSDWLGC
UniProt P03956, 100-469 limits assumed: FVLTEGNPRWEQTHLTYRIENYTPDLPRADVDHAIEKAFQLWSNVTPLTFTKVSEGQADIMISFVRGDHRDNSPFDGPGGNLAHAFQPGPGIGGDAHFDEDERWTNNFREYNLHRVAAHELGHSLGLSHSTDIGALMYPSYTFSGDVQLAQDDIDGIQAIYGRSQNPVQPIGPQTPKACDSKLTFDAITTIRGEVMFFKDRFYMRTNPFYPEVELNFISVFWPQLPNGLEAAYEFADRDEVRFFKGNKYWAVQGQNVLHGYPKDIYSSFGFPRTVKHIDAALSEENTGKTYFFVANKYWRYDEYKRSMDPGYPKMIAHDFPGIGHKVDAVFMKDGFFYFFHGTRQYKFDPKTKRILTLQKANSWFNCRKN

Legend:
[1] = molecular target: MMP-8 catalytic domain (Homo sapiens, UniProt P22894); assay: Assay for inhibitory activities on MMPs (fluorogenic peptide substrate): MMP-8; details: read-out: MMP-8 inhibitory activity (IC50); substrate MOCAc-Pro-Leu-Gly-Leu-A2Pr(DNP)-Ala-Arg-NH2
[2] = molecular target: MMP-9 (Homo sapiens, UniProt P14780); assay: Assay for inhibitory activities on MMPs (fluorogenic peptide substrate): MMP-9; details: read-out: MMP-9 inhibitory activity (IC50); substrate MOCAc-Pro-Leu-Gly-Leu-A2Pr(DNP)-Ala-Arg-NH2
[3] = molecular target: MMP-12 catalytic domain (Homo sapiens, UniProt P39900); assay: Assay for inhibitory activities on MMPs (fluorogenic peptide substrate): MMP-12; details: read-out: MMP-12 inhibitory activity (IC50); substrate MOCAc-Pro-Leu-Gly-Leu-A2Pr(DNP)-Ala-Arg-NH2
[4] = molecular target: MMP-2 (Homo sapiens, UniProt P08253); assay: Assay for inhibitory activities on MMPs (fluorogenic peptide substrate): MMP-2; assay type: biochemical; details: read-out: MMP-2 inhibitory activity (IC50); substrate MOCAc-Pro-Leu-Gly-Leu-A2Pr(DNP)-Ala-Arg-NH2
[5] = molecular target: MMP-13 catalytic domain (Homo sapiens, UniProt P45452); assay: Assay for inhibitory activities on MMPs (fluorogenic peptide substrate): MMP-13; details: read-out: MMP-13 inhibitory activity (IC50); substrate MOCAc-Pro-Leu-Gly-Leu-A2Pr(DNP)-Ala-Arg-NH2
[6] = molecular target: MMP-1 (Homo sapiens, UniProt P03956); assay: Assay for inhibitory activities on MMPs (fluorogenic peptide substrate): MMP-1; details: read-out: MMP-1 inhibitory activity (IC50); substrate MOCAc-Pro-Leu-Gly-Leu-A2Pr(DNP)-Ala-Arg-NH2

With `CSCC[C@@H](NS(=O)(=O)c1ccc(C#Cc2ccc3ccccc3c2)cc1)C(=O)O` the IC50 [1] was 1320 nM, the IC50 [2] was 620 nM and the IC50 [3] was 10 nM. It also gave an IC50 [4] of 110 nM, an IC50 [5] of 370 nM and an IC50 [6] of over 10000 nM.
